The numbers were not newly measured in publication PMC10609940, “Systemic Dendrimer-Peptide Therapies for Wet Age-Related Macular Degeneration” (Pharmaceutics, 2023), which cites them from elsewhere.

In this data set the test system is CNV area. To be noted: daily injections; cited from earlier work. The text has this: When systemically administered in vivo, differences in the distribution and bioavailability of D-ALG and free ALG-1001 peptide could be better elucidated. Fluorescently labeled D-ALG was detectable in the CNV area up to 4 days after intraperitoneal injection; on the other hand, free ALG-1001 signal was undetectable after day 2. The increased residence time at the target area allowed for less frequent injections for D-ALG.

With “CGRP peptides: calcitonin gene-related peptide (ref 77) (ACDTATCVTHRLAGLLSRSGGVVKNNFVPTNVGSKAF; Calcitonin gene-related peptide 1; UniProt P06881 83-119, looked up)”, the CNV area reduction was 30%.
